The structures appear in SMILES notation. Some of the results follow.

This experiment has as its system A. baumannii ATCC 17978. In words: relative growth (fraction of control); higher = less inhibition. The note with it: 50 µM.
In turn, `C/C=C\C1=C(C(=O)O)N2C(=O)C(NC(=O)C(N)c3ccc(O)cc3)C2SC1` (centres undefined) displayed a relative growth of 1.08. The same measure for `CCC(CC)C(=O)N1c2ccccc2Sc2ccccc21`: 0.737; for `O=C(C[C@H]1C=C[C@H](NC(=O)C2CC2)[C@H](CO)O1)NCCCN1CCOCC1`: 0.94. In turn, `NCC[C@H]1CC[C@H](NC(=O)C2CC2)[C@@H](CO)O1` displayed a relative growth of 0.998. The same measure for `CC(=O)OCC(=O)[C@@]12OC3(CCCC3)O[C@@H]1C[C@H]1[C@@H]3CCC4=CC(=O)C=C[C@]4(C)[C@@]3(F)[C@@H](O)C[C@@]12C`: 1.09; for `Cc1ccc(S(=O)(=O)N[C@H]2CC[C@H](CCNC(=O)CN3CCOCC3)O[C@@H]2CO)cc1`: 1.03; for `O=C(C[C@H]1C[C@H]2c3cc(NS(=O)(=O)c4ccc(F)cc4)ccc3O[C@H]2[C@@H](CO)O1)NC1CCCC1`: 1.02. The same measure for `Clc1ccc(CO/N=C(\Cn2ccnc2)c2ccc(Cl)cc2Cl)c(Cl)c1.O=[N+]([O-])O`: 0.922; for `COc1ccccc1OC[C@@H](O)CO`: 1.01; for `CC(C)C[N+]1(C)Cc2ccccc2C1`: 0.939.

In turn, `C[C@H]1CN([C@@H](C)CO)S(=O)(=O)c2ccc(C#Cc3ccccc3F)cc2O[C@H]1CN(C)CC1CC1` returned a relative growth of 0.792. The same measure for `CCCNCC(O)COc1ccccc1C(=O)CCc1ccccc1.Cl` (centres undefined): 0.884; for `CC(=O)NCCCC[C@@H]1NC(=O)[C@H]2C[C@@H](C(=O)NCCCC[N+](C)(C)C)[C@@H](c3cccc(OCCO)c3)N2C1=O`: 0.938; for `CCn1cc(C(=O)O)c(=O)c2cc(F)c(N3CCN(C)CC3)cc21.CS(=O)(=O)O`: 0.141. The same measure for `Cl.N#Cc1ccc2[nH]cc(CCCCN3CCN(c4ccc5oc(C(N)=O)cc5c4)CC3)c2c1`: 0.914; for `Nc1nc(=O)[nH]cc1Br`: 0.903. In the case of `CC(C)CNC(=O)[C@@H]1c2ccccc2C(=O)N(Cc2ccccc2C(F)(F)F)[C@H]1c1ccc(CO)cc1` it was 0.857; in that of `O=C(C[C@H]1C=C[C@@H](NC(=O)CN2CCOCC2)[C@@H](CO)O1)NCc1cccc(F)c1`, 0.904; in that of `COCCOC(=O)N1C(=O)[C@@]2(c3cc(C#CC4=CCCCC4)ccc31)[C@H](c1ccccc1OCCO)N1[C@H](c3ccccc3)[C@H](c3ccccc3)OC(=O)[C@H]1[C@@H]2C(=O)N1CCCCCCC1`, 1.18.

`CCOC(=O)CC1=NNC(=N)SC1` showed a relative growth of 0.96. In the case of `O=C(NCC[C@@H]1CC[C@H](NS(=O)(=O)c2cccc(F)c2)[C@@H](CO)O1)C1CC1` it was 1.08; in that of `Cc1ccc(S[C@]2(C(=O)O)CC(=O)N(Cc3ccccc3C(F)(F)F)[C@@H]2c2ccc(CO)cc2)cc1`, 0.883; in that of `Cc1nc(CSCc2ccc(Cl)cc2Cl)cs1`, 0.946. The same measure for `O=C(C[C@@H]1C[C@@H]2c3cc(NS(=O)(=O)c4ccc(F)cc4)ccc3O[C@@H]2[C@@H](CO)O1)NCc1ccccc1`: 0.866. The same measure for `CO[C@H]1CN(C)C(=O)c2cc(NS(C)(=O)=O)ccc2OC[C@@H](C)N(C(=O)c2ccc3c(c2)OCO3)C[C@@H]1C`: 0.867. For `C[C@@H]1CN([C@@H](C)CO)C(=O)c2cc(C#Cc3ccccc3F)cnc2O[C@H]1CN(C)S(=O)(=O)c1ccccc1`, the relative growth was found to be 0.97.

Turning to `NCc1ccccc1`, the relative growth amounted to 0.854. `COc1c(O)cc(O)cc1O` came in with a relative growth of 0.918. In the case of `Cc1ccc(S(=O)(=O)N[C@@H](Cc2ccccc2)C(=O)NCCCn2cc(CCC(=O)NO)nn2)cc1` it was 0.955; in that of `CN1CCN(C(=O)C[C@@H]2CC[C@@H](NC(=O)Cc3ccccn3)[C@@H](CO)O2)CC1`, 0.934; in that of `COCCOC(=O)N1C(=O)[C@@]2(c3cc(C#CC4=CCCCC4)ccc31)[C@H](C(=O)N1CCN(c3ncccn3)CC1)[C@H]1C(=O)O[C@H](c3ccccc3)[C@H](c3ccccc3)N1[C@@H]2c1ccc(O)cc1`, 0.97. The same measure for `COc1ccc(NC(=O)N[C@H]2CC[C@@H](CCNC(=O)CN3CCOCC3)O[C@H]2CO)cc1`: 1.02. In the case of `O=C(CCCCCC(=O)N/N=C/[C@@H](O)[C@H](O)[C@H](O)CO)NO` it was 0.936; in that of `CCc1cn([C@H]2C[C@@H](O)[C@@H](CO)O2)c(=O)[nH]c1=O`, 1.16; in that of `CN(C)CCCN1c2ccccc2Sc2ccccc21.Cl`, 0.96. `COc1cccc(C#Cc2ccc3c(c2)O[C@@H](CN(C)C(=O)CN2CCOCC2)[C@@H](C)CN([C@@H](C)CO)S3(=O)=O)c1` had a relative growth of 0.64. The same measure for `CC(C)(C)[C@H]1COC(=O)[C@@H](NC(=O)OCC2c3ccccc3-c3ccccc32)CC=CC[C@H](CC(=O)N(CCO)Cc2ccccc2)C(=O)N1`: 1.16. `S=c1[nH]nc(C2CCCCC2)[nH]1` returned a relative growth of 1.07. Take `COc1cccc(NC(=O)N(C)C[C@@H]2Oc3cc(C#CC4(O)CCCC4)ccc3S(=O)(=O)N([C@H](C)CO)C[C@@H]2C)c1`: the relative growth was found to be 1.07. Molecule `Nc1nnc(-c2cccc(Cl)c2Cl)c(N)n1` gave a relative growth of 1.05. In the case of `Cc1noc(C)c1NC(=O)N[C@@H]1C=C[C@H](CC(=O)NCCCN(C)C)O[C@@H]1CO` it was 1.03. The same measure for `c1ccc(-c2nc(C34CC5CC(CC(C5)C3)C4)cs2)cc1`: 0.893. The same measure for `C[C@H]1CN([C@@H](C)CO)S(=O)(=O)c2ccc(C3=CCCC3)cc2O[C@H]1CN(C)C(=O)c1cnccn1`: 0.997. `CN1CCCC(n2nc(Cc3ccc(Cl)cc3)c3ccccc3c2=O)CC1.Cl` (centres undefined) registered a relative growth of 0.928.

As for `CN1CCN(C(=O)C[C@@H]2CC[C@H]3[C@@H](COC[C@@H](O)CN3Cc3ccc4c(c3)OCO4)O2)CC1`, the relative growth amounted to 0.92.

`NC(=S)c1ccc(-n2cncn2)nc1` registered a relative growth of 1.07.

For `O=C(O)c1cnc[nH]1`, the relative growth stood at 1.02. The same measure for `O=C(O)/C=C(\CC(=O)O)C(=O)O`: 1.06. In the case of `Nc1nc(=O)[nH]cc1F` it was 0.987; in that of `CN1C(=O)[C@@H]2[C@@H]3C[C@H]4[C@@H](O[C@H]1[C@H]42)[C@H]3O`, 1.11.

Regarding `CC1(C)S[C@@H]2[C@H](NC(=O)[C@H](C(=O)[O-])c3ccsc3)C(=O)N2[C@H]1C(=O)[O-].[Na+].[Na+]`, the relative growth was determined as 1.04. In the case of `COCCNC(=O)C[C@H]1C[C@@H]2c3cc(NC(=O)COC)ccc3O[C@@H]2[C@H](CO)O1` it was 1.16; in that of `C=C1CC[C@H](O)C/C1=C/C=C1\CCC[C@]2(C)C([C@H](C)/C=C/[C@H](C)C(C)C)CC[C@@H]12` (some centres undefined), 1.29. In the case of `C[C@H](NC(=O)C[C@H]1C=C[C@H](NC(=O)CN2CCOCC2)[C@@H](CO)O1)c1ccccc1` it was 1.17.

(Values after published antibiotic growth screens (doi:10.1038/s41589-023-01349-8).)
